The list shows a part of the results, in another mix than the full data. Records with an inconclusive call do not appear. The source made the active and inactive calls. Calls come from the whole dose curve; as a rule, active = well fitted inhibition curve with a large enough effect; inconclusive = small, poorly fitted or top-dose-only effect; inactive = no such curve, though single readings can be large or run the other way.
% is set by controls: 0 for no effect and ±100 for the full control effect; potency is the fitted concentration of half-maximal effect.

The chains behind the UniProt entries cited, without tags or fusion partners.
UniProt O75164, whole entry: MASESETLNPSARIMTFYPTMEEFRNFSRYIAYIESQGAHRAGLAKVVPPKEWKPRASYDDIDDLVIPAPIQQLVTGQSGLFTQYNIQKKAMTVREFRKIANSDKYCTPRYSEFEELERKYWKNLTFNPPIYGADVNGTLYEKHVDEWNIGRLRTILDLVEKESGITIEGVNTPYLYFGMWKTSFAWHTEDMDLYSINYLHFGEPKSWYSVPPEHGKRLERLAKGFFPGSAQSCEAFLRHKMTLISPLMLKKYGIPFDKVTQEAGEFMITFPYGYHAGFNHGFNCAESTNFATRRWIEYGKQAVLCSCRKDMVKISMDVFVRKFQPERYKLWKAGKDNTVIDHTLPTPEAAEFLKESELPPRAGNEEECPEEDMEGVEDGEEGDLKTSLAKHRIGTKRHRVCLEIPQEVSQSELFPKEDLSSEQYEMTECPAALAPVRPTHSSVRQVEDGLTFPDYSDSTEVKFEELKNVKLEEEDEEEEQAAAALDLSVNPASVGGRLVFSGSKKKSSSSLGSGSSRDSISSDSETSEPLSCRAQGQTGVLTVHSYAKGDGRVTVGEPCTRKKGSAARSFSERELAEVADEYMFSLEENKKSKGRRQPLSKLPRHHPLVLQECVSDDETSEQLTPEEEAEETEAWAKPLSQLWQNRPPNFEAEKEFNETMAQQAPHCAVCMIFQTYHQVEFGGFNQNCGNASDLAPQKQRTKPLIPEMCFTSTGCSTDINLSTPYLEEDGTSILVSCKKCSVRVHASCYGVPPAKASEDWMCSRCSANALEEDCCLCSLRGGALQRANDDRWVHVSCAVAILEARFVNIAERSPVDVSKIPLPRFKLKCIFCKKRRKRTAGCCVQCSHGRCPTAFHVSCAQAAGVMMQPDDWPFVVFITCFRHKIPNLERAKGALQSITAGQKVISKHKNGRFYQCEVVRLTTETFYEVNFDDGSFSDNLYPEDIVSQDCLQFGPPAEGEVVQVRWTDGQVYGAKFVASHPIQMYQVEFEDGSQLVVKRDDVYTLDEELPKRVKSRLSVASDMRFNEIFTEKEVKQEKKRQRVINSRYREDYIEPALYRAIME

In this assay the target is Lysine-specific demethylase 4A (Homo sapiens) (UniProt O75164). The assay is described as follows: qHTS Assay for Inhibitors of JMJD2A-Tudor Domain. Note: nearly all actives have a fitted effect of over 50% in size. To be noted: AlphaScreen JMJD2A-Tudor / H3K4me3 peptide binding; series mostly up to 114 µM; activity change, negative = inhibition: at the top concentration. A general note: Quantitative high-throughput screening tests each substance at several concentrations.
For the compound `CCC(=O)N(c1ccccc1)C1(COC)CCN(CCc2cccs2)CC1`, the Potency was active: 50.1 µM.
`CCC(=O)N(c1ccccc1)C1(COC)CCN(CCn2nnn(CC)c2=O)CC1`: the “activity change, negative = inhibition” value is inactive: -22.1%.

Source of the values: PubChem BioAssay AID504339 (National Center for Advancing Translational Sciences (NCATS), 2011).
